Data: ChEMBL document CHEMBL1759916, “Bicyclo[2.2.2]octyltriazole inhibitors of 11β-hydoxysteroid dehydrogenase type 1. Pharmacological agents for the treatment of metabolic syndrome” (Bioorg Med Chem Lett, 2011)

Sequences of proteins named here, by UniProt entry; tags and fusion partners are left off. A change or cut given only in a name is not applied to a line headed by its entry.
UniProt P28845: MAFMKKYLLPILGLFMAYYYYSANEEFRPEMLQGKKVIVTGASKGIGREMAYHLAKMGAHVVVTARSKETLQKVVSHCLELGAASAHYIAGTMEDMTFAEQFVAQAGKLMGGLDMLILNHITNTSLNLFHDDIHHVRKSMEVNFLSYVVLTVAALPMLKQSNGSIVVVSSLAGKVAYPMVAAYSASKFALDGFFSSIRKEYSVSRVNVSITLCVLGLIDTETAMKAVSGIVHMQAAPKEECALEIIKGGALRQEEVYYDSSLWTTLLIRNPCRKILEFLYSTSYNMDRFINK

What was measured:
[1] = molecular target: 11-beta-hydroxysteroid dehydrogenase 1 (Homo sapiens, UniProt P28845); experiment: Inhibition of human 11beta-HSD1 expressed in CHO-K1 cells assessed as conversion of [3H]-cortisone to [3H]-cortisol by scintillation proximity assay; type: cell-based
Method in brief: (§1)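 Scintillation proximity assay (SPA). IC50 values are the average of two determinations.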

[2] = molecular target: T1, 11-beta-hydroxysteroid dehydrogenase type 2 (Mus musculus, UniProt P51661); experiment: Inhibition of mouse 11beta-HSD2 expressed in CHO-K1 cells assessed as conversion of [3H]-cortisol to [3H]-cortisone by scintillation proximity assay; type: cell-based; method in brief: as §1
T1 sequence (P51661 whole entry): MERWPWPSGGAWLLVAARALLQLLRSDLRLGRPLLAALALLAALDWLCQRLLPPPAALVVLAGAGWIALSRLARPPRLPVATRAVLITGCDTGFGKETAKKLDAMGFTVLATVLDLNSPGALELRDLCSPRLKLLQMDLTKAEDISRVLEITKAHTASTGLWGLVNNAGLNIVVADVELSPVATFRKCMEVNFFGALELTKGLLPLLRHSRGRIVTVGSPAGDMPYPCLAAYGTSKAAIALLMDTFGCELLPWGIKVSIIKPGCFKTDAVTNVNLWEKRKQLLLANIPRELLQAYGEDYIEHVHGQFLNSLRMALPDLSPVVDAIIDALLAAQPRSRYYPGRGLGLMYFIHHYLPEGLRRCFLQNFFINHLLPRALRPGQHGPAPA

CCS(=O)(=O)CCC12CCC(c3nnc(-c4ccccc4F)n3C)(CC1)CC2
IC50 [1]: 140 nM

Cn1c(-c2ccccc2C(F)(F)F)nnc1C12CCC(COc3ccc(Cl)cc3)(CC1)CC2
IC50 [2]: > 4000 nM

CC(O)CCCC12CCC(c3nnc4n3CCCCCC4)(CC1)CC2 (stereo not drawn)
IC50 [2]: 190 nM
